{"source": "patent US20240043531A1", "about": "“ANTI-CD47 MONOCLONAL ANTIBODY AND USE THEREOF” (Akeso Biopharma, Inc., priority 2021, published 2024)", "system": "HT-29 cells", "test": "ADCP: phagocytosis of HT-29 cells by HPMMs, combination with cetuximab", "assay_type": "cell-based, human", "settings": "HPMMs effector, HT29 target cells, 37° C. 2 h; FIG. 7", "protocol": "PBMCs (prepared by Akeso Biopharma, Inc., Lot No: 20200521-E) were thawed and incubated with 1640 complete medium+10% FBS (Excell bio, Cat. No: FSP500, Lot No: 11I025) overnight. The next day, the medium was changed to 1640 complete medium+2% FBS, and the cells were incubated with the medium for 2 h. The supernatant was removed, and the cells were washed twice with PBS and incubated in an incubator (90% 1640+10% FBS+M-CSF-100 ng/mL) to induce adult human macrophages (HPMMs, prepared by Akeso Biopharma, Inc.). The medium was exchanged and the treatment was given on days 3 and 5. The experiment was performed on day 7 of induction.\nHT-29 cells (Chinese Academy of Sciences, Shanghai Institutes for Biological Sciences Cell Center, Cat. No: TCHu103) were conventionally collected, centrifuged at 170×g for 5 min, resuspended and then counted. Then the cells were analyzed for viability and washed once with PBS. […] 1 mL of 1640 complete medium was added, and the cells were incubated in an incubator for 10 min, resuspended and counted. […]\n6F7H1L1(hG4) and cetuximab (prepared by Akeso Biopharma, Inc., Lot No: 20200917) were diluted to the desired concentrations with 1640 complete medium, and an isotype control antibody group was set. […] The cells were counted, transferred to 1.5 mL EP tubes and centrifuged at 1200×g for 5 min, and the supernatant was discarded. […]"}
{"substance": "cetuximab: anti-human EGFR antibody, prepared by Akeso Biopharma, Inc.", "values": [{"measurement": "phagocytic index (ADCP)", "value": "significantly higher than those of the blank control and the isotype control (human IgG4)"}]}
